In PubChem BioAssay AID624354 (Sanford-Burnham Center for Chemical Genomics, 2012):
The entries are a selection whose mix differs from that of the whole data set. Activity calls are given as the source filed them.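 Rule for the calls: active = compounds causing at least 50% loss of cell viability in the single-dose screen, relative to plate controls; inactive = the rest.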

Experiment: viability loss with TRAIL in NB7+C8 cells, primary screen, TRAIL sensitizer project, cell-based, ATPlite luminescence (AID 624354)
Details: at 10 µM, stronger effect = higher value

Structure (SMILES) | inhibition (viability loss, TRAIL sensitization)
O=C(NC1CCS(=O)(=O)C1)NP(=S)(Oc1ccccc1)Oc1ccccc1 (stereo not given) | inactive: -8.08%
CCNC(=S)/N=C(\N)N[N+](=O)[O-] | inactive: 3.45%
c1ccc(-c2nn[nH]n2)c(-c2nn[nH]n2)c1 | inactive: 24.3%
Cc1ccc(NP(=O)(Oc2cccc(C)c2)Oc2cccc(C)c2)nc1 | inactive: -7.23%
O=P1(N(CCCl)CCCl)OCCC2CCCCN21 (stereo not given) | inactive: 5.52%
COC(=O)c1cc2c(s1)N=C(c1ccccc1)N(C)P2(=O)N1CCOCC1 (stereo not given) | inactive: 7.05%
Cc1ccc(OP(=O)(Nc2ccccn2)Oc2ccc(C)cc2)cc1 | inactive: 1.64%
CC(=O)NC(SC(=S)N(CC(C)C)CC(C)C)C(Cl)(Cl)Cl (stereo not given) | inactive: 12.5%
O=C(OC1CN2CCC1CC2)c1ccccc1 (stereo not given) | inactive: -9.88%
CCC(=O)N1C2C3N(C(=O)CC)C1C1N(C(=O)CC)C(C(N1C(=O)CC)N3C(=O)CC)N2C(=O)CC | inactive: 11%
Cc1ccccc1OP(=O)(Nc1ccccn1)Oc1ccccc1C | inactive: 3.1%
CC(NC(=O)COC(=O)C(O)(c1ccccc1)c1ccccc1)c1ccccc1 (stereo not given) | inactive: 8.22%
CN(C)C(=O)Oc1noc2ccccc12 | inactive: -7.06%
O=c1c2cc([N+](=O)[O-])ccc2[nH]c2c([N+](=O)[O-])cc([N+](=O)[O-])cc12 | inactive: 10.2%
O=C(O)c1ccccc1[As](=O)(O)O | inactive: -10.7%
CC(=O)Nc1ccc([As](=O)(O)O)cc1 | inactive: -3.77%
CCCC1OP(N)(=O)OCC1CC (stereo not given) | inactive: 6.56%
CN(C)P(=O)(N(C)C)n1c(Nc2ccccc2)nnc1-c1ccccc1 | inactive: -6.38%
O=P(Nc1nc2ccc(Cl)cc2s1)(c1ccccc1)c1ccccc1 | inactive: 18.1%
CCOP(=O)(Nc1ccccc1)OCC | inactive: -15.4%
Cc1cc(SC(NC(=O)c2ccc(F)cc2)C(Cl)(Cl)Cl)ncn1 (stereo not given) | inactive: -5.19%
CN(C(=O)Cc1ccc(Cl)c(Cl)c1)[C@H]1CCCC[C@@H]1N1CCCC1 | inactive: 6.13%
Cc1ccc(NP(=O)(Oc2ccccc2F)Oc2ccccc2F)nc1 | inactive: 0.745%
CCN(N=Nc1nonc1N)c1nonc1N | inactive: -6.11%
Nc1cccc2ccc([As](=O)(O)O)cc12 | inactive: 8.7%

Structure (SMILES) | inhibition (viability loss, TRAIL sensitization)
NC(=O)c1cc([N+](=O)[O-])cc([N+](=O)[O-])c1N | inactive: -12.9%
CN(C(=O)Cc1ccc(Cl)c(Cl)c1)[C@H]1CCCC[C@H]1N1CCCC1 | inactive: -3.84%
Cc1ccc(N/C(=N/P(=O)(N2CCOCC2)N2CCOCC2)N2CCOCC2)cc1 | inactive: -3.71%
COc1ccccc1OP(=O)(Nc1ccc(C)cn1)Oc1ccccc1OC | inactive: -5.42%
Cc1ccc(OP(=O)(Nc2nccs2)Oc2ccc(C)cc2)cc1 | inactive: -10.3%
Clc1ccc(Cl)c(NC2=NCC(CBr)S2)c1 (stereo not given) | inactive: 2.22%
CN1CCCC(OC(=O)C(c2ccccc2)c2ccccc2)C1 (stereo not given) | inactive: -4.54%
CC(C)CC(=O)NC(Sc1ccc(Cl)cc1)C(Cl)(Cl)Cl (stereo not given) | inactive: -18.3%
Nc1cc(N)c2nonc2c1[N+](=O)[O-] | inactive: 16.5%
Oc1ccccc1CNc1ccccn1 | inactive: -6.91%
O=C(NC(Sc1ccncn1)C(Cl)(Cl)Cl)c1ccccc1 (stereo not given) | inactive: -13.2%
O=[N+]([O-])C1C(O)C(O)C([N+](=O)[O-])C(O)C1O (stereo not given) | inactive: -8.15%
COc1ccc(C2=NCC(CBr)S2)cc1 (stereo not given) | inactive: 7.37%
CC(=O)N1C2C3N(C(C)=O)C1C1N(C(C)=O)C(C(N1C(C)=O)N3C(C)=O)N2C(C)=O | inactive: -4.17%
O=[N+]([O-])c1cccc2n[nH]nc12 | inactive: 2.8%
Cc1ccc(NP(=O)(Oc2ccccc2)Oc2ccccc2)nc1 | inactive: -3.15%
O=[N+]([O-])c1cc([N+](=O)[O-])c(CCNc2ccccc2)c([N+](=O)[O-])c1 | inactive: 1.62%
CCc1nc2c(n1)c1c(non1O)c1c2no[n+]1[O-] | inactive: 39.4%
Nc1ccc([As](=O)(O)c2ccc(N)cc2)cc1 | inactive: 0.17%
C[N+]1=C2C=CC=CC=C2SC12C([N+](=O)[O-])=CC([N+](=O)[O-])=C[C-]2[N+](=O)[O-] (stereo not given) | inactive: 12.6%
CCN(/C(=N/P(=O)(N1CCOCC1)N1CCOCC1)N1CCOCC1)c1ccc(OC)cc1 | inactive: -6.42%
CC(C)=N/N=C(\N)N[N+](=O)[O-] | inactive: -4.72%
CC(C)c1nc(Nc2ccccc2)n(P(=O)(N(C)C)N(C)C)n1 | inactive: -6.46%
CN(C)C(=O)OCCc1n(C)cc[n+]1C | inactive: 9.87%
c1cc(-c2nn[nH]n2)ccc1-c1nn[nH]n1 | inactive: -14.6%
